We go through three molecules from patent publication US9169209B2, “Compounds and compositions for the inhibition of NAMPT” (FORMA TM, LLC, priority 2011, dated 2015).

By UniProt entry, the sequences of proteins in these tests, tags left out. Where a name states a change or a piece, a line headed by the entry shows the natural chain unless it says otherwise.
UniProt P43490: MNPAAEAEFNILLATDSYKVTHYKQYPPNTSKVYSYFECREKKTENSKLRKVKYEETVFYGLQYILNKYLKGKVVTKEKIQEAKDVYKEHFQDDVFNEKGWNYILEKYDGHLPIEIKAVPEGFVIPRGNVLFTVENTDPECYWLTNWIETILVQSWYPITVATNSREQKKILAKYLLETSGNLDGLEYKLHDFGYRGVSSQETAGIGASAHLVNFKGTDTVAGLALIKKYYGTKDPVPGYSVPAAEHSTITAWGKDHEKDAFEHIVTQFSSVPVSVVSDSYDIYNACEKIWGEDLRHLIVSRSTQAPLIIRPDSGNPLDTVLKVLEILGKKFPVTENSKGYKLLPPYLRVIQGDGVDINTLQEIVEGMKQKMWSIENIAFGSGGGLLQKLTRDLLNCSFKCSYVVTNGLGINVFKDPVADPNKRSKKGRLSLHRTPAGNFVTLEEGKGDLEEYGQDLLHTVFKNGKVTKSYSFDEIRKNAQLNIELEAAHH

What is called IC50 is the concentration that inhibits the measured activity by half.

The structures appear in SMILES notation.

The experiment deals with NAMPT (Homo sapiens (Human), UniProt P43490). Kind of experiment: Biochemical Inhibition Assay (NAMPT enzymatic reaction, NMN quantified by mass spectrometry). Particulars: recombinant His-tagged NAMPT, 33 nM; 1 μM NAM; read-out: Biochem IC50. The method, then: Recombinant His-tagged NAMPT was produced in E. coli cells, purified over a Ni column, and further purified over a size-exclusion column by XTAL Biostructures.
The NAMPT enzymatic reactions were carried out in Buffer A (50 mM Hepes pH 7.5, 50 mM NaCl, 5 mM MgCl2, and 1 mM THP) in 96-well V-bottom plates. The compound titrations were performed in a separate dilution plate by serially diluting the compounds in DMSO to make a 100× stock. […] The compound and enzyme mix was incubated for 15 minutes at room temperature, then 10 μL of 10× substrate and co-factors in Buffer A were added to the test well to make a final concentration of 1 μM NAM, 100 μM 5-Phospho-D-ribose 1-diphosphate (PRPP), and 2.5 mM Adenosine 5′-triphosphate (ATP). The reaction was allowed to proceed for 30 minutes at room temperature, then was quenched with the addition of 11 μL of a solution of formic acid and L-Cystathionine to make a final concentration of 1% formic acid and 10 μM L-Cystathionine. Background and signal strength was determined by addition (or non-addition) of a serial dilution of NMN to a pre-quenched enzyme and cofactor mix.
A mass spectrometry-based assay was used to measure the NAMPT reaction product (NMN) and the internal control (L-Cystathionine). NMN and L-Cystathionine were detected using the services of Biocius Lifesciences with the RapidFire system. In short, the NMN and L-Cystathionine are bound to a graphitic carbon cartridge in 0.1% formic acid, eluted in 30% acetonitrile buffer, and injected into a Sciex 4000 mass spectrometer. The components of the sample were ionized with electrospray ionization and the positive ions were detected. […] The fragments are quantified and the analyzed by the following method.
First the NMN signal is normalized to the L-Cystathionine signal by dividing the NMN signal by the L-Cystathionine signal for each well. The signal from the background wells are averaged and subtracted from the test plates. […]
IC50s are Determined Using Excel and this Formula. […]
For `COc1ccc2cc(S(=O)(=O)c3ccc(NC(=O)/C=C/c4cccnc4)cc3)ccc2c1` [(2E)-N-[4-(6-methoxynaphthalene-2-sulfonyl)phenyl]-3-(pyridin-3-yl)prop-2-enamide], the IC50 stood at 5.9 nM.
In the case of `Cc1cccc(S(=O)(=O)c2ccc(NC(=O)/C=C/c3cccnc3)cc2)c1` [(2E)-N-{4-[(3-methylbenzene)sulfonyl]phenyl}-3-(pyridin-3-yl)prop-2-enamide] it was 32.3 nM.
In the case of `Cc1ccc(S(=O)(=O)c2ccc(NC(=O)/C=C/c3cccnc3)cc2)cn1` [(2E)-N-[4-(6-methylpyridine-3-sulfonyl)phenyl]-3-(pyridin-3-yl)prop-2-enamide] it was 37.4 nM.
